This experiment concerns promoter of the neuronal precursor specific gene doublecortin (DCX). Put plainly: DCX promoter firefly-luciferase assay in primary fetal mouse brain derived (MEF) cells. The experiment is classed as cell-based. Conditions: DCX promoter-luciferase transfected MEF cells, stimulated three days. How it is done: Chromane-like cyclic prenylflavonoids, including the compounds 1a to 1g, 2a, 3a and 3b according to the invention, were tested for their ability to induce the promoter of the neuronal precursor specific gene doublecortin (DCX) in a firefly-luciferase assay using primary fetal mouse brain derived cells (Karl, 2005) in Neurobasal plus 1% FCS.
Primary mouse embryonic day 16 forebrain (MEF) cultures were prepared as follows. Pregnant NMRI mice (Charles River Laboratories, Sulzfeld, Germany) were sacrificed and the uteri promptly removed and immersed in ice-cold Dulbecco's phosphate buffered saline solution—DPBS (PAA, Pasching, Austria). Eight embryonic day (E) 16 embryos were released from the uteri; forebrains were taken out, separated from surrounding tissues and mechanically dissociated using a razor blade. Subsequently the dissociated cells were collected by 5 min centrifugation at 120×g. The pellet was resuspended in 10 ml PPD-solution containing 0.01% papain (Worthington, England), 0.1% Dispasell (Roche, Basel, Switzerland), 0.01% DNasel (Worthington, England), 12.4 mM MgSO4 dissolved in HBSS w/o Ca/Mg (PAA, Pasching, Austria). The cell suspension was incubated at 37° C. and triturated every ten minutes for three times. […] Cell number was determined by Trypan blue exclusion. […]

As to `Cc1c(C)c2c(c(C)c1O)CCC(C)(CCCC(C)CCCC(C)CCCC(C)C)O2` (racemic) [tocopherol, 2,5,7,8-tetramethyl-2-(4,8,12 trimethyltridecyl)chroman-6-ol, reference compound], the “stimulatory effect on the DCX promoter activity (FF/R relative to control)” value is listed as “did not have any significant stimulatory effect”.

(Values after patent US9956199B2, “Chromane-like cyclic prenylflavonoids for the medical intervention in neurological disorders” (priority 2011, dated 2018).)
